Source: article PMC3460729, “Innate immune properties of selected human neuropeptides against Moraxella catarrhalis and nontypeable Haemophilus influenzae” (BMC Immunology, 2012)
Marks after values point to notes of the source that are not given here.

What was measured:
[1] = tested on: M. catarrhalis ATCC 25238, Mc5, Mc6; conditions: ATCC 25238, 3 h
Procedure: (§1) For the radial diffusion assay a mid-log phase bacteria were diluted to the concentration of ~ 1–2 × 10^6 CFU/ml in 10 ml of melted and cooled to 42°C, 1% agarose (w/v, molecular biology grade) in 10 mM sodium phosphate containing 1/100 dilution of full strength BHI and 0.02% (v/v) Tween 20 (Sigma). After vigorous mixing, the bacteria in the agarose were poured onto Petri plate forming under-layer in which 3 mm diameter sterile wells were cut. The wells were filled with serially diluted neuropeptides (5 μl) at concentrations ranging from 10^−6 M to 10^−3 M and plates were incubated for 3 h at 37°C to allow peptide diffusion. The plates were then overlaid with 10 ml of the buffered 1% agarose containing 6% BHI (w/v) and allowed to harden. […] The MIC value was determined as the x-axis intercept obtained from the relationship between the diameter of radial diffusion zones versus NP concentration. […] Polymyxin B was used as a positive control.

[2] = tested on: H. influenzae ATCC 49247, NTHi3, NTHi6; conditions: ATCC 49247, 3 h
Procedure: as §1

human PMNs = assay: fMLF-induced ROS generation by PMNs, luminol-dependent chemiluminescence; format: cell-based; conditions: for ROS release [% of control]: 0.2 μM fMLF, peak height PHCL, mean of three independent experiments
Procedure: (§2) Polymorphonuclear leukocytes (PMNs) from healthy young adult volunteers were isolated from venous blood samples anticoagulated with Lithium-heparin (7.5 ml) by ficoll (Aqua-Med, Poland) density gradient centrifugation (2000 rpm/30 min), followed by hypotonic lysis of erythrocytes with a lysing buffer (0.83% NH4Cl, 0.1% KHCO3, EDTA, pH 7.4). After two washes (1400 rpm/10 min) in PBS, PMNs were resuspended to the final concentration of […] cells/ml in phagocytic buffer: HBSS with Ca^++ and Mg^++ supplemented with 1% HiFBS. The purity of granulocyte suspensions was checked using 15 μg/ml of acridine orange. […] Isolated PMNs were kept for 30 min at 37°C and 5% CO2 until used.
Reactive oxygen species (ROS) formation by PMNs was measured using luminol-dependent chemiluminescence assay (CL) in white flat-bottom 96-well microplates (NUNC, Denmark). The reaction mixture of total volume 200 μl in each well contained: 100 μl of PMN suspension in HBSS–Ca^++Mg^++ (10^5 cells/well), 40 μl of luminol (50 μM/well), 40 μl of fMLP (0.2 μM/well), 20 μl of particular NP (in the range 10^−12–10^−8 M/well). In other experiments, the respiratory burst was triggered by phagocytosis of 40 μl heat killed (56°C/30 min) M. catarrhalis ATCC 25238 or H. influenzae ATCC 49247 at concentration of ½ of OD600 = 1 or OD600 = 1, respectively. […] The PMA stimulus at 0.1 μM final concentration was used as positive control of the relevant oxidative stress. The CL kinetics was measured at constant 37°C temperature using luminometer (Microlumat, LB96P, Berthold) and recorded as relative light units (RLU). Measuring conditions for fMLP were: interval (46 s), run time (up to 30 min). The conditions for bacterial and PMA stimulation were: interval (83 s), run time (up to 60 min). The maximal value of CL response curve was expressed as peak height (PHCL) for fMLP stimulant. In other cases the area under chemiluminescence curve (AUCCL) was calculated. Each sample was run in triplicate and the values were averaged. […] Results were expressed as mean ± SD.

[3] = tested on: nontypeable H. influenzae NTHi3, NTHi6; conditions: 100 μM
Procedure: For the time kill assay from 0 to 1.5 h, overnight cultures of Mc and NTHi were inoculated into new medium and incubated under the relevant conditions until early log-phase (OD600 = 0.25–0.3). The bacteria were diluted in 10 mM sodium phosphate buffer, NaPB, (pH 7.4) containing 1% (w/v) BHI to obtain ~2 x 10^6 CFU/ml. […] After each time of incubation the suspensions were 10-fold serially diluted with 10 mM NaPB-1% BHI and 20 μl aliquots were plated in triplicate on BHI (M. catarrhalis) or HAEM (H. influenzae) agar plates. The plates were incubated overnight at 37°C in 5% CO2 conditions. Simultaneously, the incubation of bacteria in the presence of an appropriate diluent was included for positive control of bacterial growth. The colony counts and CFU/ml were calculated next day. The bactericidal activity of neuropeptides was expressed as survival ratios determined as the numbers of CFU after neuropeptide incubation divided by the numbers of CFU estimated from a control plate (time 0). All antimicrobial assays were performed at least two times in triplicate.

[4] = tested on: human PMNs stimulated with M. catarrhalis ATCC 25238; assay: M. catarrhalis-stimulated ROS generation by PMNs, luminol-dependent chemiluminescence; format: cell-based; conditions: 10^−8 M NP, nonopsonized M. catarrhalis; mean ± SD, n = 5-6 donors
Procedure: as §2
Reactive oxygen species (ROS) formation by PMNs was measured using luminol-dependent chemiluminescence assay (CL) in white flat-bottom 96-well microplates (NUNC, Denmark). The reaction mixture of total volume 200 μl in each well contained: 100 μl of PMN suspension in HBSS–Ca^++Mg^++ (10^5 cells/well), 40 μl of luminol (50 μM/well), 40 μl of fMLP (0.2 μM/well), 20 μl of particular NP (in the range 10^−12–10^−8 M/well). […] The maximal value of CL response curve was expressed as peak height (PHCL) for fMLP stimulant. In other cases the area under chemiluminescence curve (AUCCL) was calculated. […] Results were expressed as mean ± SD.

CC(C)C[C@H](NC(=O)CNC(=O)[C@H](C)NC(=O)[C@H](CC(C)C)NC(=O)[C@H](CCCNC(=N)N)NC(=O)[C@H](Cc1c[nH]cn1)NC(=O)[C@@H](NC(=O)[C@@H](NC(=O)[C@@H]1CSSC[C@H](NC(=O)[C@H](C)N)C(=O)N[C@@H](CC(=O)O)C(=O)N[C@@H]([C@@H](C)O)C(=O)N[C@@H](C)C(=O)N[C@@H]([C@@H](C)O)C(=O)N1)C(C)C)[C@@H](C)O)C(=O)N[C@@H](CC(C)C)C(=O)N[C@@H](CO)C(=O)N[C@@H](CCCNC(=N)N)C(=O)N[C@@H](CO)C(=O)NCC(=O)NCC(=O)N[C@H](C(=O)N[C@H](C(=O)N[C@@H](CCCCN)C(=O)N[C@@H](CC(N)=O)C(=O)N[C@@H](CC(N)=O)C(=O)N[C@@H](Cc1ccccc1)C(=O)N[C@H](C(=O)N1CCC[C@H]1C(=O)N[C@H](C(=O)N[C@@H](CC(N)=O)C(=O)N[C@H](C(=O)NCC(=O)N[C@@H](CO)C(=O)N[C@@H](CCCCN)C(=O)N[C@@H](C)C(=O)N[C@@H](Cc1ccccc1)C(N)=O)C(C)C)[C@@H](C)O)C(C)C)C(C)C)C(C)C [CGRP, Calcitonin gene related peptide]
MIC [1]: > 132 µM
MIC [2]: > 132 µM
ROS release [% of control] (human PMNs; 10^-8 M NP): 266.41^a % of control
ROS release [% of control] (human PMNs; 10^-10 M NP): 164.35^a % of control
ROS release [% of control] (human PMNs; 10^-12 M NP): 153.47^b % of control
activation of respiratory burst of PMNs (human PMNs; neuropeptide alone, without stimulus): did not activate
type of antibacterial effect [3]: bacteriostatic
increase of mean AUCCL [4]: 40.5 ± 22.3%
